Tested on: rats
Experiment: Analgesia in the tail flick (focal ray) test in rats, intravenous administration

CN(C)C1(c2cccs2)CCC2(CCN(C(=O)CC3CC3)C2)CC1 (stereo not shown)
Tail flick rat, i.v. ED50 rat [μg/kg]: 3.36 µg/kg

Source: US10202345B2, “Substituted azaspiro(4.5)decane derivatives” (priority 2014, dated 2019)
